Here are results for one compound from publication PMC6099574, “Synthesis, Design, and Structure–Activity Relationship of the Pyrimidone Derivatives as Novel Selective Inhibitors of Plasmodium falciparum Dihydroorotate Dehydrogenase” (Molecules : A Journal of Synthetic Chemistry and Natural …, 2018).

The chains behind the UniProt entries cited, without tags or fusion partners. Residues count along the entry.
UniProt Q08210, 158-569: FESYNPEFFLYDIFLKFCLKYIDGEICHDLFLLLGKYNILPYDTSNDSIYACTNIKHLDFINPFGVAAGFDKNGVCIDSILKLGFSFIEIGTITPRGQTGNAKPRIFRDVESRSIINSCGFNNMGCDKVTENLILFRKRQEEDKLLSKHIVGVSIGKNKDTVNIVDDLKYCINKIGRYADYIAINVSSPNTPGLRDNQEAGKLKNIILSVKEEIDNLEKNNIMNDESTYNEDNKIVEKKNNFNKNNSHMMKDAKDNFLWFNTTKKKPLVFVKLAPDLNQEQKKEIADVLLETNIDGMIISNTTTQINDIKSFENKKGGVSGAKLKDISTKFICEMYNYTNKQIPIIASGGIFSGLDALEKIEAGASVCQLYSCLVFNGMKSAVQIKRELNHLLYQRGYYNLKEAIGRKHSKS

This experiment deals with T1, PfDHODH (Phe158–Ser569) (Plasmodium falciparum, UniProt Q08210).
T1 construct: enzyme activity determination of PfDHODH (Phe158–Ser569) and hDHODH (Met30–Arg396); made in house
Description: In vitro enzyme assay, PfDHODH (DCIP reduction). It counts as biochemical. As for the experimental part: Protein expression, purification, and enzyme activity determination of PfDHODH (Phe158–Ser569) and hDHODH (Met30–Arg396) were performed according to our previous work. The enzymes were diluted to a final concentration of 10 nM using the assay buffer containing 50 mM HEPES (pH 8.0), 150 mM KCl, 0.1% Triton X-100 supplemented with 100 µM UQ0, and 120 µM DCIP. The mixture was transferred into a 96-well plate and incubated with or without various amounts of inhibitors for 5 min at room temperature, and then the dihydroorotate was added to a final concentration of 500 µM to initiate the reaction. The reaction was monitored by measuring the decrease in DCIP in the absorption at 600 nm at each 30 s over a period of 6 min. Brequinar and DSM1 were measured as the positive controls for hDHODH and PfDHODH, respectively. Percent inhibition relative to no inhibitor control was calculated by (1 − Vi/V0) × 100. For the determination of the IC50 value of the inhibitor, eight or nine different concentrations were applied. Each inhibitor concentration point was tested in triplicate, and the IC50 values were calculated using the sigmoidal fitting option of the program Origin 8.0 (Originlab, Northampton, MA, US).

Compound `Cc1cc(Nc2ccc3ccccc3c2)n2ncnc2n1` [DSM1, reference compound] returned an IC50 of 0.042 ± 0.004 µM.

Broadly, the IC50 is the concentration needed to halve the response being measured. A higher IC50 goes with weaker potency in that assay.
